For the test, the system named is MCC lines. The experiment in a line: Flow cytometry for HLA-I surface expression in MCC lines after interferon treatment. It counts as cell-based, human. As to conditions: two lines (MCC-290, MCC-301); 24 hours. The procedure:
Flow cytometry. Cells were dissociated with Versene and incubated with 5 µL Human TruStain FcX (Fc Receptor Blocking Solution; Biolegend # 422302) per million cells in 100 µL at room temperature for 10 min. Fluorophore-conjugated antibodies or respective isotype controls were added and incubated for another 30 min at 4° C. Cells were then washed once with PBS and resuspended in PBS or 4% paraformaldehyde and analyzed on an LSR Fortessa cytometer. For HLA-I and HLA-II detection, the following antibodies were used: HLA-ABC (W6/32 clone) conjugated to PE (BioLegend # 311406), APC (BioLegend # 311410), or AF647 (Santa Cruz Biotechnology # sc32235 AF647), and HLA-DR-FITC (BioLegend # 307604).
Background: Flow cytometry measures light scatter and fluorescence of single cells or particles in a stream.

“Also recorded” adds a separate entry of the source.

B1: IFN-β: type I IFN (protein, UniProt P01574 22-187, looked up)
Interferon beta: MSYNLLGFLQRSSNFQCQKLLWQLNGRLEYCLKDRMNFDIPEEIKQLQQFQKEDAALTIYEMLQNIFAIFRQDSSSTGWNETIVENLLANVYHQINHLKTVLEEKLEKEDFTRGKLMSSLHLKRYYGRILHYLKAKEYSHCAWTIVRVEILRNFYFINRLTGYLRN
For B1, the “HLA I surface upregulation by type I interferon” value is “could be upregulated; also recorded: upregulate HLA-I”.

The values above are taken from US20230248814A1, “COMPOSITIONS AND METHODS FOR TREATING MERKEL CELL CARCINOMA (MCC) USING HLA CLASS I SPECIFIC EPITOPES” (The Broad Institute, Inc., priority 2020, published 2023).
